Data reported in patent US20240299561A1, “HISTIDINE-SELECTIVE POLYMER REAGENTS” (Nektar Therapeutics, priority 2021, published 2024).

Test: Hydrolytic stability of PEG conjugates with α-CBZ-histidine in PBS buffer, pH 7.4, 37° C. (HPLC)
Conditions: not given

Substance | degree of hydrolytic stability relative to the other conjugates tested
mPEG-OCO-(2-CF3-piperazin-1-yl)-CO-α-CBZ-His 5 kDa [Conjugate 16] | highest degree of hydrolysis
mPEG-OCO—NH-(piperidin-4-yl)-CO-α-CBZ-His 5 kDa [Conjugate 17] | highest degree of hydrolytic stability
mPEG-OCO—NH—CH2-(piperidin-4-yl)-α-CBZ-His 5 kDa [Conjugate 18] | highest degree of hydrolytic stability

Same assay, conditions: day 10

Substance | % Hydrolysis at day 10
mPEG-N(CH2CF3)—CO-α-CBZ-Histidine, 5 kDa [Conjugate 14] | 26.5%
mPEG-OCO-(2-CF3-piperazin-1-yl)-CO-α-CBZ-His 5 kDa [Conjugate 16] | 46.0%
mPEG-OCO—NH-(piperidin-4-yl)-CO-α-CBZ-His 5 kDa [Conjugate 17] | 1.8%
mPEG-OCO—NH—CH2-(piperidin-4-yl)-α-CBZ-His 5 kDa [Conjugate 18] | 2.7%
